Experimental data as given in EP0415470A2, “Aminopeptidase” (CAMPINA MELKUNIE B.V., priority 1989, dated 1991).

Protein sequences, listed by entry. Tags and fused reporters are not part of them. Lines headed by an entry give the natural chain unless they say otherwise; changes in a name come on top.
UniProt P0C2T8: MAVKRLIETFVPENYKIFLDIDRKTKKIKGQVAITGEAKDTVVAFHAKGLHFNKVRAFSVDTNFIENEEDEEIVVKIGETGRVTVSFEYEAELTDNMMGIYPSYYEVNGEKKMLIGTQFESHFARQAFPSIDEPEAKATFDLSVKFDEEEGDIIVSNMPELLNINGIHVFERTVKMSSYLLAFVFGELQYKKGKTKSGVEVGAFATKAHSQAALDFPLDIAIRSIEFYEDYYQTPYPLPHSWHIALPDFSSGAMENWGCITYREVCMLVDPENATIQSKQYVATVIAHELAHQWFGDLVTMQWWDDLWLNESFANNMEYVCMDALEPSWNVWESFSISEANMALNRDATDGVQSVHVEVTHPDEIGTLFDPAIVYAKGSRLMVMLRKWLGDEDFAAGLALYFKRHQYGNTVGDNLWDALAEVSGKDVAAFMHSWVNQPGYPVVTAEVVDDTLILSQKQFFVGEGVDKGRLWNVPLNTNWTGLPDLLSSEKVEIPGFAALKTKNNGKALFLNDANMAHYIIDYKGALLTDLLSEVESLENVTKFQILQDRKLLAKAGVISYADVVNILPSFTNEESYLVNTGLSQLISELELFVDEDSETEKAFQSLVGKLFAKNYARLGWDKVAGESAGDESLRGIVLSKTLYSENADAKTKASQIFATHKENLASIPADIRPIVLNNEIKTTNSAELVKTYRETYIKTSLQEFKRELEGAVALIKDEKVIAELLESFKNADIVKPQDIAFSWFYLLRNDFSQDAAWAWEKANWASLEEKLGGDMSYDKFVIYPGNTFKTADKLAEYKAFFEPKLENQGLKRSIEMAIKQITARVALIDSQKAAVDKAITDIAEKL

Molecular target: aminopeptidase of L. lactis subsp. cremoris Wg2 (Lactococcus lactis subsp. cremoris, UniProt P0C2T8)
Assay: Effect of divalent cations and chemical substances on the enzyme activity
Format: biochemical
Conditions: for activity of the enzyme treated with 1,10-phenanthroline restored to: addition of 50 µM salt, enzyme treated with 200 µM 1,10-phenanthroline; for inhibition of the activity: 25 µM; for inhibition of the enzyme activity: 100 µM

| Molecule | activity of the enzyme treated with 1,10-phenanthroline restored to [%] | restoration of the activity of the enzyme treated with 1,10-phenanthroline (in words) | inhibition of the activity [%] | inhibition of the enzyme activity [%] | further results |
| --- | --- | --- | --- | --- | --- |
| O=[As]c1ccccc1 (stereo not drawn) | – | – | – | – | effect on the hydrolysis activity of the enzyme (in words) (2.5 mM): no effect; effect of chemical reagents on the aminopeptidase activity (in words) (reagents to sulphydryl, thiol and disulphide groups, concentration not given): insensitive |
| CoCl₂ | 80 | – | – | – | – |
| CuCl₂ | – | could not restore the enzyme activity | 8 | – | – |
| ZnCl₂ | 88 | most effective stimulator | – | 32 | effect of zinc ions at higher concentrations (in words) (concentrations of more than 100 µM, enzyme treated with 1,10-phenanthroline): inhibition |
| FeCl₂ | – | could not restore the enzyme activity | – | 60 | – |
| Cd(NO₃)₂ | – | – | 35 | – | – |
